# Reported properties for industrial, environmental and drug-like chemicals

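The numbers are reported measurements, compiled and curated for the OPERA QSAR suite. A listed value is a point estimate from one report or more. Method and conditions are not stated for these values. The measured form (salt, isomer or mixture) is not always the one drawn. Some entries may be limits or estimates that an upstream database listed as plain numbers.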

Melting points are in °C. Boiling points are in °C, nominally at 760 mmHg. The octanol-water partition coefficient is given as log10; larger values mean a more lipophilic compound. Solubility in water is on a log10 molar scale (set defined at 25 °C). Vapor pressure is log10 of mmHg; the set covers 15 to 30 °C, mostly 20 to 25 °C. fu is the fraction unbound in human plasma, from 0 to 1. Clint is human hepatic intrinsic clearance in µL/min per million cells; 0 means that no clearance was seen. "n/a" marks a cell with nothing listed here.

For CC1(C)[C@H]2CC[C@]3(C2)[C@H]1C1(CCC3(C)C)OCCO1 the data give bp 280 °C and log Kow 5.69 and log S -5.221 (log10 mol/L) and vapor pressure -2.362 (log10 mmHg).
For CC(C)(C)c1ccc(Nc2ccc(Nc3ccc(C(C)(C)C)cc3)c3c2C(=O)c2c(O)ccc(O)c2C3=O)cc1 the data give MP 258 °C and log Kow 10.7 and log S -8.653 (log10 mol/L).
For CC(=O)OCCN(CCOC(C)=O)c1ccc(N=Nc2ccc([N+](=O)[O-])cc2C#N)cc1 [Disperse Red 82] the data give MP 140.8 °C and log Kow 3.7.
For C[C@]12CC[C@H]3C(=CCc4cc(O)ccc43)[C@@H]1CCC2=O [Equilin] the data give plasma fu 0.0583 and intrinsic clearance 9.74 µL/min/10^6 cells.
For CC(=O)Oc1ccccc1C(=O)OCC(=O)N(C)CCO the data give MP 70.5 °C and log Kow 0.06.
For CCCCCC(=O)OC(=O)CCCCC [Hexanoic anhydride] the data give log Kow 4.45 and log S -4.297 (log10 mol/L).
For CS(=O)(=O)c1ccc(CNc2ncccc2Br)c(C(F)(F)F)c1 the data give MP 122 °C and log S -6.767 (log10 mol/L) and vapor pressure -9.403 (log10 mmHg).
For CC1(C)c2ccccc2-c2ccc(N(c3ccc4c(c3)C3(c5ccccc5-c5ccccc53)c3ccccc3-4)c3ccccc3-c3ccccc3)cc21 the data give MP 255.8 °C and log S -8.131 (log10 mol/L).
For CCCCCCCCCCCCCCCC(=O)N1C(=O)CCC1C(=O)[O-].[Na+] (configuration not stated) [Sodium 1-hexadecanoyl-5-oxopyrrolidine-2-carboxylate] the data give MP 62.5 °C and log Kow 2.95 and log S -4.022 (log10 mol/L) and vapor pressure -6.894 (log10 mmHg).
For O=C(O)COCCOCC(=O)O [3,6-Dioxaoctandioic acid] the data give MP 79 °C and vapor pressure -5.859 (log10 mmHg).
For C[C@]12CC[C@@H]3c4ccc(OS(=O)(=O)O)cc4CC[C@H]3[C@@H]1CC[C@@H]2O [17-Hydroxyestra-1(10),2,4-trien-3-yl hydrogen sulfate] the data give MP 178.5 °C and log Kow 2.936 and log S -4.991 (log10 mol/L).
For CCCCCCC(=O)CO [1-hydroxy-2-octanone] the data give MP 12.72 °C and bp 189.7 °C and log Kow 1.683 and vapor pressure -0.694 (log10 mmHg).
For Nc1nc(N)c2nc(CNc3ccc(C(=O)N[C@@H](CCC(=O)O)C(=O)O)cc3)cnc2n1 [Aminopterin] the data give log S -2.167 (log10 mol/L) and intrinsic clearance 0 µL/min/10^6 cells.
For CC(=O)c1ccc(CC(C)C)cc1 [Ethanone, 1-[4-(2-methylpropyl)phenyl]-] the data give MP -13 °C and log Kow 3.4 and log S -3.371 (log10 mol/L) and vapor pressure -2.13 (log10 mmHg).
For O=C(OCC1CO1)C1CC=CCC1C(=O)OCC1CO1 (configuration not stated) the data give log Kow 1.46 and vapor pressure -6.084 (log10 mmHg).
For COc1ccc(N=NC(C(C)=O)C(=O)Nc2ccccc2OC)c([N+](=O)[O-])c1 (configuration not stated) [Pigment Yellow 65] the data give MP 225 °C and log S -8.308 (log10 mol/L).
For CCOC(=O)CC1(C)OCCO1 [1,3-Dioxolane-2-acetic acid, 2-methyl-, ethyl ester] the data give MP -78.8 °C and log Kow 0.8 and vapor pressure -0.091 (log10 mmHg).
For CC1(C)Nc2cccc3cccc(c23)N1 [2,2-Dimethyl-2,3-dihydroperimidine] the data give MP 110 °C and log Kow 2.25 and log S -2.93 (log10 mol/L) and vapor pressure -5.084 (log10 mmHg).
For CCCC(C)=NO[Si](ON=C(C)CCC)(ON=C(C)CCC)ON=C(C)CCC the data give MP 30.3 °C and log Kow 1.25 and vapor pressure -5.897 (log10 mmHg).
For CN(C)CCCNC1CC(C)(C)NC(C)(C)C1 the data give MP -79 °C and bp 283.2 °C and log Kow 3.772 and vapor pressure -2.426 (log10 mmHg).
For CCN(CCO)c1ccc(/N=N/c2sc3cc(OC)ccc3[n+]2C)cc1.COS(=O)(=O)[O-] [C.I. Basic Blue 41] the data give log Kow -1.6 and vapor pressure -7.878 (log10 mmHg).
For COCCOCCOCCNC(C)(C)C the data give MP -44 °C and bp 257.8 °C and log Kow 0.9 and vapor pressure -2.095 (log10 mmHg).
For O=c1c2ccccc2[nH]c2cc3c(=O)c4ccccc4[nH]c3cc12 [5,12-Dihydroquino[2,3-b]acridine-7,14-dione] the data give log Kow 2.2 and log S -7.482 (log10 mol/L).
For COc1ccc(OC)c(NC(C)=O)c1 [Acetamide, N-(2,5-dimethoxyphenyl)-] the data give log Kow 1.1 and log S -1.592 (log10 mol/L).
For CC(=O)OCC1=C(C(=O)O)N2C(=O)[C@@H](NC(=O)CC#N)[C@H]2SC1 [Cephacetrile] the data give log S -2.145 (log10 mol/L) and plasma fu 0.8.
For Cc1[nH]c2ccccc2c1/N=N/c1cc(Cl)c(S(=O)(=O)NCCS(=O)(=O)[O-])cc1Cl.[Na+] the data give log Kow 0.83 and log S -3.663 (log10 mol/L).
For CC(C)COC(C)(C)C [Isopropyl tert-butyl ether] the data give MP -101.6 °C and vapor pressure 1.317 (log10 mmHg).

A selection of 2 entries from above:

| compound | name | MP (°C) | bp (°C) | log Kow | log S (log10 mol/L) | vapor pressure (log10 mmHg) | plasma fu | intrinsic clearance (µL/min/10^6 cells) |
|---|---|---|---|---|---|---|---|---|
| O=C(O)COCCOCC(=O)O | 3,6-Dioxaoctandioic acid | 79 | n/a | n/a | n/a | -5.859 | n/a | n/a |
| Cc1[nH]c2ccccc2c1/N=N/c1cc(Cl)c(S(=O)(=O)NCCS(=O)(=O)[O-])cc1Cl.[Na+] | n/a | n/a | n/a | 0.83 | -3.663 | n/a | n/a | n/a |

Source: data files of OPERA 2.9 (Mansouri et al.), github.com/kmansouri/OPERA.